Results reported in US9718790B2, “Triazine derivative and pharmaceutical composition having an analgesic activity comprising the same” (SHIONOGI & CO., LTD., priority 2010, dated 2017).

Protein sequences, listed by entry. Tags and fused reporters are not part of them.
UniProt P56373, whole entry: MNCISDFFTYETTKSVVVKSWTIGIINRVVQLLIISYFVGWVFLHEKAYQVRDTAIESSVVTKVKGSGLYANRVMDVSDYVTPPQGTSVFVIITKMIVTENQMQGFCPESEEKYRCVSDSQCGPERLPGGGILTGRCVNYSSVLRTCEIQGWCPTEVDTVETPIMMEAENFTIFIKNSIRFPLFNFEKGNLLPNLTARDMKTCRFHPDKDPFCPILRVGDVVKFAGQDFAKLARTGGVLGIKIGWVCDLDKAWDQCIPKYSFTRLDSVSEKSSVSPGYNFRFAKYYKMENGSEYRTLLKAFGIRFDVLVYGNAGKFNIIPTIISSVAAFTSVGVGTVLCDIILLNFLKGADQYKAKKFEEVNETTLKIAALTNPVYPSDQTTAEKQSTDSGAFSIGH

Target: human P2X3 receptor (Homo sapiens (Human), UniProt P56373)
Test: Evaluation of human P2X3 receptor inhibitory activity (Fluo-3 calcium fluorescence, FDSS 3000, ATP stimulation);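 note: stimulus was 50 nM ATP with fluorescence followed for 3 min, and the response per well was peak post-ATP fluorescence divided by the reading at measurement start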
Type: cell-based
Details: read-out: P2X3 IC50
[1] = C6BU-1 cells stably expressing human P2X3 receptor, Fluo-3 fluorescence, FDSS 3000
[2] = C6BU-1 cells stably expressing human P2X3 receptor

SMILES | IC50 [1] [nM] | also measured
CCOC(=O)C1(Cn2c(=O)[nH]c(=Nc3ccc(OC(C)C)c(Cl)c3)n(Cc3ccc(C)cc3)c2=O)CC1 | – | IC50: 10 nM
CCC[C@@H](C)Oc1ccc(/N=c2\[nH]c(=O)n(CCC(=O)O)c(=O)n2Cc2ccc(C)cc2)cc1 | 541 | –
COC(=O)[C@@H](C)Cn1c(=O)[nH]/c(=N\c2ccc(OC(C)C)c(Br)c2)n(Cc2ccc(C)cc2)c1=O | 7 | –
CCOc1ccc(N=c2[nH]c(=O)n(CC3(C(=O)O)CC3)c(=O)n2Cc2ccc(C)cc2)cc1Cl | 22 | –
CCOC(=O)C1(Cn2c(=O)[nH]c(=Nc3ccc(OCC)c(Cl)c3)n(Cc3ccc(C)cc3)c2=O)CC1 | 4 | –
Cc1ccc(Oc2ccc(N=c3[nH]c(=O)n(C[C@H](C)C(=O)O)c(=O)n3Cc3ccc(Cl)cc3)cc2)cn1 | – | IC50 [2]: 17 nM
CCCOc1ccc(N=c2[nH]c(=O)n(CCC(=O)OCC)c(=O)n2Cc2ccc(C)cc2)cc1Cl | – | IC50 (human P2X3 receptor, Test Example 1): 13 nM
COC(=O)[C@H](C)[C@H](C)n1c(=O)[nH]/c(=N\c2ccc(OCC3CC3)cc2)n(Cc2ccc(Cl)cc2)c1=O | 18 | –
O=C(O)CCn1c(=O)[nH]c(=Nc2ccc(OCC3CC3)cc2)n(Cc2ccc(Cl)cc2)c1=O | 65 | –
CCCOc1ccc(/N=c2\[nH]c(=O)n([C@@H](C)[C@@H](C)C(=O)OC)c(=O)n2Cc2ccc(Cl)cc2)cc1 | 23 | –
Cc1ccc(Cn2c(=Nc3ccc(OC(C)C)c(Cl)c3)[nH]c(=O)n(CC3(C(=O)O)CC3)c2=O)cc1 | 11 | –
CC(C)Oc1ccc(N=c2[nH]c(=O)n(CCc3nn[nH]n3)c(=O)n2Cc2ccc(Cl)cc2)cc1F | – | IC50: 10 nM
CCCc1nc2ccc(N=c3[nH]c(=O)n(C[C@H](C)C(=O)O)c(=O)n3Cc3ccc(Cl)cc3)cc2o1 | – | IC50 [2]: 50 nM

Like-named read-outs stand apart in the source and are kept apart here.
